{
  "source": "PubChem BioAssay AID624354",
  "about": "(Sanford-Burnham Center for Chemical Genomics, 2012)",
  "note": "The entries are a selection whose mix differs from that of the whole data set. The source made the active and inactive calls.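 The calls were made as follows: active = compounds causing at least 50% loss of cell viability in the single-dose screen, relative to plate controls; inactive = the rest.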",
  "data": [
    {"experiment": "TRAIL-exposed caspase-8 expressing cell killing – NB7+C8 cells, ATPlite luminescence, TRAIL sensitizer project, primary screen (AID 624354)", "settings": "at 10 µM, active compounds read high", "values": [
      {"smiles": "CCC(=O)N(c1ccccc1)C1(COC)CCN(CCc2cccs2)CC1", "inhibition (viability loss, TRAIL sensitization)": "inactive: 7.05%"},
      {"smiles": "CCC(=O)N(c1ccccc1)C1(COC)CCN(CCn2nnn(CC)c2=O)CC1", "inhibition (viability loss, TRAIL sensitization)": "inactive: 1.04%"}
    ]}
  ]
}
